One may read the Ki as the dissociation constant of the complex between target and ligand, obtained from inhibition or displacement. As a reminder, the EC50 is the midpoint of the concentration-response curve.

Protein sequences, listed by entry. Tags and fused reporters are not part of them. Lines headed by an entry give the natural chain unless they say otherwise; changes in a name come on top.
UniProt P47747, whole entry: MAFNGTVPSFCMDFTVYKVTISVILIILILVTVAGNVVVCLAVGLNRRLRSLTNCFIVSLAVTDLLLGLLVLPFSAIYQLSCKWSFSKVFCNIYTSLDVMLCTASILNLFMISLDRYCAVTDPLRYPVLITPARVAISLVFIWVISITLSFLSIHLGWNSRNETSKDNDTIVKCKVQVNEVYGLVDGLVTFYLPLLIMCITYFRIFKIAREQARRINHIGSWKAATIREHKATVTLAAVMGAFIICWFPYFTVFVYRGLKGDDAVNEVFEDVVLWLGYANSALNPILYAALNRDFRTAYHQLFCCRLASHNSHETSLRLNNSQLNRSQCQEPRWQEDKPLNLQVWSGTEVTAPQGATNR
UniProt P11229: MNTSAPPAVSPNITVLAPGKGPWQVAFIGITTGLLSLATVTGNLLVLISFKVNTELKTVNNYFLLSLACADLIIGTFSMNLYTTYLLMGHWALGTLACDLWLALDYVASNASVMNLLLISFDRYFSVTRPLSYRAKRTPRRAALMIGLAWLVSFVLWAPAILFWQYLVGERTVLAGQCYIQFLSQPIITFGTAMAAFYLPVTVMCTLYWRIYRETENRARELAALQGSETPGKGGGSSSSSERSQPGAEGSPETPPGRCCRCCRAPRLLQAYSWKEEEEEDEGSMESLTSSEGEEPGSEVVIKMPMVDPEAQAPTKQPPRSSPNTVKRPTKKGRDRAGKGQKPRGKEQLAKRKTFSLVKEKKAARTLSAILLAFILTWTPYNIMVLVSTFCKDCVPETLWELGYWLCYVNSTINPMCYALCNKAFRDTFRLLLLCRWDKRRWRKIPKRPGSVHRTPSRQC
UniProt P41145: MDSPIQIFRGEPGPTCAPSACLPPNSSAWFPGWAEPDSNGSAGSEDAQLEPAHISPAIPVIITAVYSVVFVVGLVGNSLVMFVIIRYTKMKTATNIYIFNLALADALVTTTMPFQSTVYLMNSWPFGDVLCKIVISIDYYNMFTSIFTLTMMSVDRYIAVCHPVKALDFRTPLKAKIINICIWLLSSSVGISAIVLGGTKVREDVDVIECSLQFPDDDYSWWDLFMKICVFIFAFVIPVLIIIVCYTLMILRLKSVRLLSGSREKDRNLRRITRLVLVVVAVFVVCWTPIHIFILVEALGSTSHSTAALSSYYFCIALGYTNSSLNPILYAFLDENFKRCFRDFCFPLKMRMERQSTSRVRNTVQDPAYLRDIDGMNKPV
UniProt P28566: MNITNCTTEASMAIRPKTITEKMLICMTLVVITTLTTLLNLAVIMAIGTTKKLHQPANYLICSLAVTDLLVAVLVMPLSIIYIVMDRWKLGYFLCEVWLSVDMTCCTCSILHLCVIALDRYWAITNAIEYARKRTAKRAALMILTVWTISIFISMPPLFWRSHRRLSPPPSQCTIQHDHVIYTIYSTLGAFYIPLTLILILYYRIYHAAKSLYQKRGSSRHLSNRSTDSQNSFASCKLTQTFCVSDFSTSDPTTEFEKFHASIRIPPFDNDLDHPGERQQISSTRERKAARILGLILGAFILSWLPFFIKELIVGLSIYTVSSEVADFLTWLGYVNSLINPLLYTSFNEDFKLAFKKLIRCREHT
UniProt P18901, whole entry: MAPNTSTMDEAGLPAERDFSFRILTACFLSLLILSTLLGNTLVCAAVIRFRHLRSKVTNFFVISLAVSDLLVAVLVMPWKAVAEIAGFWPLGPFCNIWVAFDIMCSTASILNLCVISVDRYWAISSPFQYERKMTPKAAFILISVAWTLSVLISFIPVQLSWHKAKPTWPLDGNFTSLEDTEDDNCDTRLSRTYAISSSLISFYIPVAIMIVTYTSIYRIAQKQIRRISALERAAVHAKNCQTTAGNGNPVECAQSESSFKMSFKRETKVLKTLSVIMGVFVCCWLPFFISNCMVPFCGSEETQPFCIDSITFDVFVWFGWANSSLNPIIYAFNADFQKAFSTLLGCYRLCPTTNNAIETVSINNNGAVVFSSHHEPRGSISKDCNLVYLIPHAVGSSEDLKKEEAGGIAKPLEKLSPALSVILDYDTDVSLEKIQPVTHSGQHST
UniProt Q13639: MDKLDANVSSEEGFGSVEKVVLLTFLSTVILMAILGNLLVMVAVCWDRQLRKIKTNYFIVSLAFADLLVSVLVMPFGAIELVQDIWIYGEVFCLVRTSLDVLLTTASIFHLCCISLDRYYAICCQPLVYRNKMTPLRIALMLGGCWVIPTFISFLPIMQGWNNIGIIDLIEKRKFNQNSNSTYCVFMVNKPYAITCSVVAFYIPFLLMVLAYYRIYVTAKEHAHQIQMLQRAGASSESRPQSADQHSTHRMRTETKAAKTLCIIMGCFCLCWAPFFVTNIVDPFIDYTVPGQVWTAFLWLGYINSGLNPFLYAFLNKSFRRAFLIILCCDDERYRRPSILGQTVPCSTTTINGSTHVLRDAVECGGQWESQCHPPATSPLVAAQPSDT

The record followed here is ChEMBL document CHEMBL1255169, “Synthesis, structure-affinity relationships, and radiolabeling of selective high-affinity 5-HT4 receptor ligands as prospective imaging probes for positron emission tomography” (J Med Chem, 2010).

One assay has as its target Histamine H2 receptor (Cavia porcellus, UniProt P47747). The assay can be described thus: Binding affinity to guinea pig histamine H2 receptor.
Assay [1] deals with Muscarinic acetylcholine receptor M1 (Homo sapiens, UniProt P11229). The assay can be described thus: Binding affinity to human muscarinic M1 receptor.
Assay [2] deals with Kappa-type opioid receptor (Homo sapiens, UniProt P41145). The assay can be described thus: Binding affinity to human kappa opioid receptor.
Assay [3] has as its target 5-hydroxytryptamine receptor 1E (Homo sapiens, UniProt P28566). The assay can be described thus: Binding affinity to human 5-HT1E receptor.
Another assay deals with D(1A) dopamine receptor (Rattus norvegicus, UniProt P18901). In words: Binding affinity to rat dopamine D1 receptor.
Assay [4] has as its target T1, 5-hydroxytryptamine receptor 4 (Homo sapiens, UniProt Q13639). In words: Agonist activity at 5HT4 receptor expressed in HEK293/L9 cells by cAMP assay. Format: functional, cell-based.
In assay [5] the target is T1, 5-hydroxytryptamine receptor 4. The assay can be described thus: Displacement of [3H]GR113808 from human recombinant 5HT4 receptor expressed in HEK293 cells. The format is cell-based.

In the case of `CCCCN1CCC(COC(=O)c2cc(F)c(N)c3c2OCCO3)CC1`, the Ki (at Histamine H2 receptor; in assay [1]; in assay [2]; in assay [3]; on D(1A) dopamine receptor) was more than 10 µM throughout.
Consider `CCCCN1CCC(COC(=O)c2ccc(N)cc2OC)CC1`, for which the midpoint of the response in assay [4], the EC50, lay at 0.000178 µM. Moreover, the Ki in assay [5] is 0.05 µM.
